{"source": "patent US11865109B2", "about": "“Formulations of (S)-3-amino-6-methoxy-N-(3,3,3-trifluoro-2-hydroxy-2-methylpropyl)-5-(trifluoromethyl)picolinamide” (NOVARTIS AG, priority 2019, dated 2024)", "assay": "ADME study: plasma PK of Compound 1 at steady state (LC-MS/MS)", "assay_type": "in vivo, human", "conditions": "Day 5, 0-12 hours, mean of N = 6", "procedure": "Six healthy male subjects of aged 18 to 55 years (inclusive) were included in this study.\nAll treatment administrations (Day 1 to Day 12) occurred approximately 30 minutes following consumption of a standardized meal. Treatments were administered with ˜240 mL water as 4×100 mg hard gelatin capsules.\nPharmacokinetic samples were obtained and evaluated in all subjects.\nThe PK parameters were based on the actual recorded sampling times and non-compartmental method(s) with Phoenix WinNonLin (Version 6.4). The terminal rate constant (λz) was determined from automated (WinNonlin algorithm) linear regression of at least the last three points with non-zero concentrations in the terminal phase of the log-transformed concentration-time profile."}
{"smiles": "COc1nc(C(=O)NC[C@](C)(O)C(F)(F)F)c(N)cc1C(F)(F)F", "note": "[Compound 1, (S)-3-amino-6-methoxy-N-(3,3,3-trifluoro-2-hydroxy-2-methylpropyl)-5-(trifluoromethyl)picolinamide]", "values": [{"measurement": "CL/F, plasma Compound 1", "value": 56.8, "unit": "L/h"}]}
